Results from US4604406A, “N-[6-methoxy-5-(perfluoroalkyl)-1-naphtholyl]-N-methylglycines and their thionaphthoyl analogs” (Ayerst, McKenna & Harrison, Inc., priority 1984, dated 1986).

Target: aldose reductase (Bos taurus, UniProt P16116)
Assay: % inhibition in vitro at 10^-7 M (aldose reductase inhibition)
Format: biochemical

## COc1ccc2c(C(=S)N(C)CC(=O)O)cccc2c1C(F)(F)F [Compound 7, N--[[5-(Trifluoromethyl)-6-methoxy-1-naphthalenyl]thioxomethyl]-N--methylglycine, reference compound]
  inhibition at 0.1 µM: 79%
